Test results: patent US8828401B2, “Cytotoxic peptides and antibody drug conjugates thereof” (Pfizer Inc., priority 2011, dated 2014)

How the values were obtained:
N87 gastric xenografts = N87 gastric xenografts with anti-Notch ADCs; type: in vivo, nude (Nu/Nu) female mice; conditions: for tumor volume (mm^3 ± SEM): Dose 5 mg/kg Q4dx4 iv
Method: (§1) Humanized anti-Notch antibodies, hu28 and hu75, and rat-human chimeric anti-Notch antibodies, ch28 and ch75, were conjugated to various linker-payload combinations and tested in 37622A1 non-small cell lung cancer (NSCLC), HCC2429 lung cancer, MDA-MB-468 breast cancer and N87 gastric cancer xenograft models. For each model described below the first dose was given on Day 0. The tumors were measured at least once a week and their volume was calculated with the formula: tumor volume (mm^3)=0.5×(tumor width^2)(tumor length). The mean tumor volumes (±S.E.M.) for each treatment group were calculated having a maximum of 10 animals and a minimum of 6 animals to be included.
Similar in vivo experiments were performed with the N87 gastric cancer cell line as described above. […] When the tumors reached a volume of 250 to 450 mm^3, the tumors were staged to ensure uniformity of the tumor mass among various treatment groups. The N87 gastric model was dosed intraveneously Q4dx4 with PBS vehicle, humanized anti-Notch ADCs, control huNeg-8.8 ADCs and cisplatin at the doses provided in Tables 16 and 17.

HCC2429 lung xenografts = HCC2429 lung xenografts with anti-Notch ADCs; type: in vivo, nude (Nu/Nu) female mice
Method: as §1
Similar in vivo experiments were performed with the HCC2429 lung cancer cell line as described above. […] When the tumors reached a volume of 200 to 400 mm^3, the tumors were staged to ensure uniformity of the tumor mass among various treatment groups. The HCC2429 lung model was dosed intraveneously Q4dx4 with PBS vehicle, humanized anti-Notch ADCs and control huNeg-8.8 ADCs at the doses provided in Tables 12 and 13.

MDA-MB-468/hNotch = assay: In vitro cytotoxicity assay with anti-Notch ADCs (MTS); type: cell-based
Method: (§2) The effects of anti-Notch ADCs were assessed on 1) cell lines endogenously expressing Notch protein: HCC2429 (lung cancer), OVCAR3 (ovarian cancer) and MDA-MB-468 (breast cancer), 2) cell lines engineered to over-express Notch protein: MDA-MB-468/hNotch and U2OS/hNotch, and 3) a negative control cell line (SW900) using an MTS cellular viability indicator (Promega, Madison, Wis.). These cell lines were cultured with increasing concentrations of anti-Notch ADCs comprising humanized anti-Notch antibodies, hu28 and hu75, and rat-human chimeric anti-Notch antibodies, ch28 and ch75, conjugated to various linker-payload combinations of the present invention. As a specificity control for the anti-Notch-ADCs, non-targeted control-ADCs (huNeg8.8-ADCs or ch2H6-ADCs) were also tested on the same cell lines. After four days, viability of each culture was assessed. IC50 values were calculated by logistic non-linear regression and presented as ng Ab/mL. The drug antibody ratio (DAR) is also provided.

OVCAR3 (ovarian cancer) = assay: as above; type: cell-based
Method: as §2

HCC2429 (lung cancer) = assay: as above; type: cell-based
Method: as §2

[1] = first of two individual repeats
[2] = second of two individual repeats

B1: hu75-vc0101: humanized anti-Notch antibody hu75 conjugated to mcValCitPABC-#54 (conjugate)
heavy: EVQLVESGGGLVQPGGSLRLSCAASGYAFTDYWMTWVRQAPGKGLEWVAEISPNSGGTNFNEKFKGRFTISVDNAKNSLYLQMNSLRAEDTAVYYCARGEIRYNWFAYWGQGTLVTVSSASTKGPSVFPLAPSSKSTSGGTAALGCLVKDYFPEPVTVSWNSGALTSGVHTFPAVLQSSGLYSLSSVVTVPSSSLGTQTYICNVNHKPSNTKVDKKV[human IgG1 Fc left out]
light: DIQMTQSPSSLSASVGDRVTITCKASQNVGNNIAWYQQKPGKAPKLLIYYASNRYTGVPSRFSGSGYGTDFTLTISSLQPEDFATYYCQRLYNSPFTFGGGTKVEIKRTVAAPSVFIFPPSDEQLKSGTASVVCLLNNFYPREAKVQWKVDNALQSGNSQESVTEQDSKDSTYSLSSTLTLSKADYEKHKVYACEVTHQGLSSPVTKSFNRGEC
- tumor volume (mm^3 ± SEM) (N87 gastric xenografts; DAY 39): 72 ± 13 mm^3
- tumor volume (mm^3 ± SEM) (N87 gastric xenografts; DAY 42): 74 ± 13 mm^3
- tumor volume (mm^3 ± SEM) (N87 gastric xenografts; DAY 53): 69 ± 13 mm^3
- tumor volume (mm^3 ± SEM) (N87 gastric xenografts; DAY 62): 50 ± 15 mm^3
- tumor volume (mm^3 ± SEM) (N87 gastric xenografts; DAY 70): 76 ± 22 mm^3
- effect on growth of N87 gastric xenografts (in words) (N87 gastric xenografts; humanized ADCs, Q4dx4, doses of Tables 16 and 17): inhibited growth of N87 gastric xenografts in a dose-dependent manner
- tumor volume (mm^3 +/− SEM) (HCC2429 lung xenografts; 0.3 mg/kg Q4dx4, DAY 1): 524 ± 66 mm^3
- tumor volume (mm^3 +/− SEM) (HCC2429 lung xenografts; 0.3 mg/kg Q4dx4, DAY 3): 713 ± 74 mm^3
- tumor volume (mm^3 +/− SEM) (HCC2429 lung xenografts; 0.3 mg/kg Q4dx4, DAY 6): 1078 ± 74 mm^3
- tumor volume (mm^3 +/− SEM) (HCC2429 lung xenografts; 0.3 mg/kg Q4dx4, DAY 8): 1499 ± 115 mm^3
- tumor volume (mm^3 +/− SEM) (HCC2429 lung xenografts; 0.3 mg/kg Q4dx4, DAY 10): 1830 ± 120 mm^3
- tumor volume (mm^3 +/− SEM) (HCC2429 lung xenografts; 0.3 mg/kg Q4dx4, DAY 13): 2408 ± 226 mm^3
- tumor volume (mm^3 +/− SEM) (HCC2429 lung xenografts; 0.3 mg/kg Q4dx4, DAY −1): 247 ± 29 mm^3
- tumor volume (mm^3 +/− SEM) (HCC2429 lung xenografts; 1 mg/kg Q4dx4, DAY 1): 548 ± 37 mm^3
- tumor volume (mm^3 +/− SEM) (HCC2429 lung xenografts; 1 mg/kg Q4dx4, DAY 3): 753 ± 93 mm^3
- tumor volume (mm^3 +/− SEM) (HCC2429 lung xenografts; 1 mg/kg Q4dx4, DAY 6): 1096 ± 146 mm^3
- tumor volume (mm^3 +/− SEM) (HCC2429 lung xenografts; 1 mg/kg Q4dx4, DAY 8): 1428 ± 200 mm^3
- tumor volume (mm^3 +/− SEM) (HCC2429 lung xenografts; 1 mg/kg Q4dx4, DAY 10): 1611 ± 189 mm^3
- tumor volume (mm^3 +/− SEM) (HCC2429 lung xenografts; 1 mg/kg Q4dx4, DAY 13): 1803 ± 208 mm^3
- tumor volume (mm^3 +/− SEM) (HCC2429 lung xenografts; 1 mg/kg Q4dx4, DAY 15): 1871 ± 232 mm^3
- tumor volume (mm^3 +/− SEM) (HCC2429 lung xenografts; 1 mg/kg Q4dx4, DAY 17): 1948 ± 228 mm^3
- tumor volume (mm^3 +/− SEM) (HCC2429 lung xenografts; 1 mg/kg Q4dx4, DAY −1): 246 ± 23 mm^3
- tumor volume (mm^3 +/− SEM) (HCC2429 lung xenografts; 3 mg/kg Q4dx4, DAY 1): 498 ± 39 mm^3
- tumor volume (mm^3 +/− SEM) (HCC2429 lung xenografts; 3 mg/kg Q4dx4, DAY 3): 498 ± 44 mm^3
- tumor volume (mm^3 +/− SEM) (HCC2429 lung xenografts; 3 mg/kg Q4dx4, DAY 6): 469 ± 70 mm^3
- tumor volume (mm^3 +/− SEM) (HCC2429 lung xenografts; 3 mg/kg Q4dx4, DAY 8): 407 ± 71 mm^3
- tumor volume (mm^3 +/− SEM) (HCC2429 lung xenografts; 3 mg/kg Q4dx4, DAY 10): 370 ± 81 mm^3
- tumor volume (mm^3 +/− SEM) (HCC2429 lung xenografts; 3 mg/kg Q4dx4, DAY 13): 273 ± 69 mm^3
- tumor volume (mm^3 +/− SEM) (HCC2429 lung xenografts; 3 mg/kg Q4dx4, DAY 15): 298 ± 88 mm^3
- tumor volume (mm^3 +/− SEM) (HCC2429 lung xenografts; 3 mg/kg Q4dx4, DAY 17): 250 ± 77 mm^3
- tumor volume (mm^3 +/− SEM) (HCC2429 lung xenografts; 3 mg/kg Q4dx4, DAY 20): 177 ± 44 mm^3
- tumor volume (mm^3 +/− SEM) (HCC2429 lung xenografts; 3 mg/kg Q4dx4, DAY 23): 160 ± 35 mm^3
- tumor volume (mm^3 +/− SEM) (HCC2429 lung xenografts; 3 mg/kg Q4dx4, DAY 27): 174 ± 51 mm^3
- tumor volume (mm^3 +/− SEM) (HCC2429 lung xenografts; 3 mg/kg Q4dx4, DAY 30): 196 ± 72 mm^3
- tumor volume (mm^3 +/− SEM) (HCC2429 lung xenografts; 3 mg/kg Q4dx4, DAY 34): 295 ± 121 mm^3
- tumor volume (mm^3 +/− SEM) (HCC2429 lung xenografts; 3 mg/kg Q4dx4, DAY 37): 433 ± 179 mm^3
- tumor volume (mm^3 +/− SEM) (HCC2429 lung xenografts; 3 mg/kg Q4dx4, DAY 41): 606 ± 259 mm^3
- tumor volume (mm^3 +/− SEM) (HCC2429 lung xenografts; 3 mg/kg Q4dx4, DAY 45): 836 ± 359 mm^3
- tumor volume (mm^3 +/− SEM) (HCC2429 lung xenografts; 3 mg/kg Q4dx4, DAY 49): 732 ± 350 mm^3
- tumor volume (mm^3 +/− SEM) (HCC2429 lung xenografts; 3 mg/kg Q4dx4, DAY −1): 245 ± 28 mm^3
- effect on growth of HCC2429 lung xenografts (in words) (HCC2429 lung xenografts; humanized ADCs, Q4dx4, doses of Tables 12 and 13): inhibited growth of HCC2429 lung xenografts in a dose-dependent manner
- IC50 (ng Ab/mL) (MDA-MB-468/hNotch; [1]): 37 ng Ab/mL
- IC50 (ng Ab/mL) (MDA-MB-468/hNotch; [2]): 36 ng Ab/mL
- IC50 (ng Ab/mL) (OVCAR3 (ovarian cancer)): 515 ng Ab/mL
- IC50 (ng Ab/mL) (HCC2429 (lung cancer); [1]): 611 ng Ab/mL
- IC50 (ng Ab/mL) (HCC2429 (lung cancer); [2]): 3295 ng Ab/mL
